Data as given in US8076373B2, “Method for treating mammalian diseases and injuries caused by the over-expression of peroxynitrite” (North Cell Pharmacetical, priority 2001, dated 2011).

Tests used:
[1] = test system: laser skin resurfacing wound; experiment: split upper lip laser skin resurfacing wound model; assay type: in vivo, human; details: patient diaries
[2] = test system: skin; experiment: pilot open patch testing on known sensitive skinned individuals

O=C([O-])CCC(=O)C(=O)[O-].[Na+].[Na+] [α-keto-glutaric acid, sodium salt]
Pain [1]: increase in pain | Irritation [2]: red skin irritations and welt-like reactions
